Earlier results as cited in patent publication US20040115309A1, “Food supplement” (priority 2000, published 2004).

Conditions: horses

Cn1c(=O)c2[nH]cnc2n(C)c1=O [theophylline]
Therapeutic level (blood concentration): 10 µg/mL
Toxic levels (blood concentration): 15 µg/mL
